## Measured affinities in a library of Ab-14 light chain variants

The target is the same throughout: PDVDLGDISGINAS, from the HR2 region of SARS-CoV-2 spike.

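The starting antibody came from a phage panning campaign against this peptide. This is the validation round: designs drawn from the data on random variants, tested in the same kind of assay. Several design methods are mixed in this list. Affinity was read by AlphaSeq, a pooled yeast mating assay with surface-displayed partners. Pairs that bind mate more often; barcode pairs of the diploids are counted by sequencing. Each replicate has its own calibration line, from reference interactions of the BCL2 family. Mating was done six times.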

Each scFv is VH, the linker GGGGSGGGGSGGGGS, VL, as in the parent Ab-14, and differs from it in the CDRs of the light chain only.
VH: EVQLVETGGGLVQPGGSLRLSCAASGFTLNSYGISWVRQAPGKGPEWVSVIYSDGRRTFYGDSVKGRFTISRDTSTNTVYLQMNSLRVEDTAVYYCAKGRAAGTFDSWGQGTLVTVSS
VL: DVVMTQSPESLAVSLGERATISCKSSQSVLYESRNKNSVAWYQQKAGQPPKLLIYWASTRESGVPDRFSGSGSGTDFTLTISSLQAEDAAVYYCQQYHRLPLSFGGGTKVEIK

Substitutions are numbered in sequence along the VL above, starting at 1 (not Kabat). Variants here have at most six changes. Each Kd is an estimate from the mating assay, the geometric mean of the replicates in which the pair was seen; lower is stronger. Where no diploid with the target was found in any replicate, the entry reads "nd": below detection, most likely a poor binder, though not proof of it. The parent sequence was in this pool as ten entries: three were never detected, three once, and four in most replicates, with averages from 2.2 nM to 240 nM. A sequence measured in both rounds can read differently, since the two assays cover different ranges. Background: pairings of all light chain designs with three empty control strains gave a value in 4% of cases (median 430 nM, 5th percentile 38 nM). Values in that range, when seen in few replicates, are hard to tell from nonspecific mating. The authors averaged sequences with at least three values out of six and counted those with two or fewer as poor binders.

For S25I R34A N35T, the assay gave 8.1 nM (6 of 6 replicates). For L30G W56G, the assay gave 5.0 nM (6 of 6 replicates). For S25L V29E W56N S58N E61M, the assay gave 690 pM (6 of 6 replicates). For S25G W56H E61L S62E R99E P101K, the assay gave 15 nM (1 of 6 replicates). The variant Q27D W56S S62Y Q95D gave nd (0 of 6 replicates).

With E32N N35L W56D R99H the result was 2.6 nM (6 of 6 replicates). With S25M V29D W56N T59Q the result was 1.1 nM (6 of 6 replicates). With S25L V29F W56N E61C the result was 910 pM (6 of 6 replicates). With Q27I V29Y R34M W56E A57G T59Y the result was 2.1 nM (6 of 6 replicates). For S25K S26D Q96L P101I, the assay gave nd (0 of 6 replicates).

The variant S25I V29M W56N T59Q gave 870 pM (6 of 6 replicates). With S25L V29M L30W W56N E61L the result was 380 pM (6 of 6 replicates). For S33L N35D, the assay gave 620 nM (1 of 6 replicates). With S25V S26D S28G V29A W56G the result was 710 pM (6 of 6 replicates). The variant S28E Y31D W56Q gave 5.2 nM (6 of 6 replicates).

For S26M L30P S33D W56E E61C Q96D, the assay gave 3.1 nM (6 of 6 replicates). The variant V29A Y31V N35E K36S T59C S103W gave nd (0 of 6 replicates). The variant Q95K L102Y showed nd (0 of 6 replicates). The variant Q27I V29Y L30G R34T W56A showed 890 pM (6 of 6 replicates). The variant S25Q K36S W56D gave 550 pM (6 of 6 replicates).

The variant Q27N Q96W gave nd (0 of 6 replicates). With S25I V29Y Y31M W56N E61L S62W the result was 930 pM (6 of 6 replicates). The variant R34D W56N S58V T59F L100H showed 230 nM (6 of 6 replicates). With S25H L30P Y31N Q96A the result was 170 nM (1 of 6 replicates). With V29F N35S W56G T59Q the result was 990 pM (6 of 6 replicates).

With S25L S26P L30W W56N the result was 550 pM (6 of 6 replicates). The variant S25F K36S W56Q S62P showed 350 pM (6 of 6 replicates). With S25L S26Q Q27M V29W W56N the result was 440 pM (6 of 6 replicates). For S33M, the assay gave 190 nM (1 of 6 replicates). With S25L S26E L30P W56N T59Q the result was 6.8 nM (6 of 6 replicates).

With K24L Q27I V29Y R34P W56E E61M the result was 3.2 nM (6 of 6 replicates). The variant S26E L30P K36P E61T gave 25 nM (6 of 6 replicates). With S25I S26Q S38A the result was 1.9 nM (6 of 6 replicates). The variant S25V V29F S38Q W56G gave 850 pM (6 of 6 replicates). The variant S28A S33W R34T W56K gave 34 nM (2 of 6 replicates).

The variant S25W L30D Y31F W56D gave 670 pM (6 of 6 replicates). The variant Q27I V29Y Y31E W56E S62R gave 1.5 nM (6 of 6 replicates). The variant W56D S62K H98E showed 2.9 nM (6 of 6 replicates). For S25L S26E W56N T59E, the assay gave 520 pM (6 of 6 replicates). With S25L L30P S33E W56N E61L the result was 570 pM (6 of 6 replicates).

The variant S25L L30G W56N S62Q gave 760 pM (6 of 6 replicates). The variant S25L V29D S38N W56Q gave 470 pM (6 of 6 replicates). The variant S25I V29C showed 3.4 nM (6 of 6 replicates).

Extract of 2 entries:

With S26E L30P K36P E61T the result was 25 nM (6 of 6 replicates).
With S25L S26P L30W W56N the result was 550 pM (6 of 6 replicates).

The measurements come from Li et al. 2023 (doi:10.1038/s41467-023-39022-2) through the FLAb antibody collection.